# From US20210330611A1, “THERAPY FOR NEUROLOGICAL DISEASES/DISORDERS” (priority 2020, published 2021)
# Counter-ions that a name gives are not always drawn.
# Tested on: primary rat microglia
smiles,measurement,value
CN1CCc2cccc3c2[C@H]1Cc1ccc(O)c(O)c1-3 [Apomorphine Hydrochloride],LPS % cell toxicity,0%
